# Measured values: PubChem BioAssay AID651768 (National Center for Advancing Translational Sciences (NCATS), 2012)
# Protein sequences, listed by entry. Tags and fused reporters are not part of them.
# UniProt Q14191, whole entry: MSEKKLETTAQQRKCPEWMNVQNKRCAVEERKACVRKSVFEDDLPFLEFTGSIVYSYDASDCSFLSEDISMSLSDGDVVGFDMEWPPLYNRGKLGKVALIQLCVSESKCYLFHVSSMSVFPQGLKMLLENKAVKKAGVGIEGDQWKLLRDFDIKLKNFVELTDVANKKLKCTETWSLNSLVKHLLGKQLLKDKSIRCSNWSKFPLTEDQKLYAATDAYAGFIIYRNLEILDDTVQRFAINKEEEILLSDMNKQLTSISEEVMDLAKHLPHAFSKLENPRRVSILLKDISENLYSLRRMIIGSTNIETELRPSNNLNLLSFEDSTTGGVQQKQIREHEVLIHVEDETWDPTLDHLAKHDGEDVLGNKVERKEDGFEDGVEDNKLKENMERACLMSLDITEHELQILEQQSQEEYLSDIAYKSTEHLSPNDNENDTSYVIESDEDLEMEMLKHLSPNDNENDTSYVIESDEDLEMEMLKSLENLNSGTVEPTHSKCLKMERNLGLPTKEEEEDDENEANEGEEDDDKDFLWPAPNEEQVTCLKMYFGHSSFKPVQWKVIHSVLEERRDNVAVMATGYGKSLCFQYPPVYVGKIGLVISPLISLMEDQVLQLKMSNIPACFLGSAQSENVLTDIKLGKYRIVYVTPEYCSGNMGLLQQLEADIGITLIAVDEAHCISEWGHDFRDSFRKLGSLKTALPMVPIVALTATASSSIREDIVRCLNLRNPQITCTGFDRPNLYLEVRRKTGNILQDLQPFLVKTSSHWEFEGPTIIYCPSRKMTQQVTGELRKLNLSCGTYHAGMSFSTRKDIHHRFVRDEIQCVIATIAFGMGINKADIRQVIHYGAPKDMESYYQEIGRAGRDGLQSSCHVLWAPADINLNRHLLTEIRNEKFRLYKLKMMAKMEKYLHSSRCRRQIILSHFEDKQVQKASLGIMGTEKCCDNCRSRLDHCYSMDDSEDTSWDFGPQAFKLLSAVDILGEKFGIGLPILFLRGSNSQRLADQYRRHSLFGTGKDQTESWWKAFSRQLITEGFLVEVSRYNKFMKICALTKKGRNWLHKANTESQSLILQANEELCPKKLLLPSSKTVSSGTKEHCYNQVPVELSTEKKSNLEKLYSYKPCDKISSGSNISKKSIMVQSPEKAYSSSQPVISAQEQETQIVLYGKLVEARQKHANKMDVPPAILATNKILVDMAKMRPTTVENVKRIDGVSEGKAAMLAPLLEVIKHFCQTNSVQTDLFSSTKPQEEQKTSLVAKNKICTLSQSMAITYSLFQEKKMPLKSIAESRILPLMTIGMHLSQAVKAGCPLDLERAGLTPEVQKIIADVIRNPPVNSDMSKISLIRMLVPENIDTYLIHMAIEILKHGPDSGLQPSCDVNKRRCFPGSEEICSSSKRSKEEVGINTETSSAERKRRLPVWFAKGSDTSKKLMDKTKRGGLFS
# This is a selection; strong and weak results do not stand in their true shares. Some results for these compounds are left out of this collection, so the calls shown say nothing about other tests. Active and inactive are the calls of the source. Calls come from the whole dose curve; as a rule, active = well fitted inhibition curve with a large enough effect; inconclusive = small, poorly fitted or top-dose-only effect; inactive = no such curve, though single readings can be large or run the other way.
# Molecular target: Bifunctional 3'-5' exonuclease/ATP-dependent helicase WRN (Homo sapiens) (UniProt Q14191)
# Assay: qHTS for Inhibitors of WRN Helicase; note: nearly all actives have a fitted effect of over 55% in size
# Details: WRN helicase unwinding, fluorescent forked duplex, kinetic; at 114 µM (top of the series)
# Source text: Inhibition of DNA repair is proposed as a strategy for combating cancer. Synthetic lethality is an approach that exploits preexisting DNA repair deficiencies in certain tumors to develop inhibitors of DNA repair pathways that compensate for the tumor-associated DNA repair deficiency. Because helicases play critical roles in the DNA damage response and in DNA repair, particularly in actively dividing and replicating cells, characterization of synthetic lethal relationships of DNA helicases may be of value in developing improved anticancer treatment strategies; moreover, small molecules that specifically target a given DNA helicase may be useful for understanding its role in cellular nucleic acid metabolism. The goal of this project is to identify small molecule, non-covalent chemical inhibitors of the Werner syndrome (WS) helicase (WRN), which plays an important role in cell proliferation, the replication stress response, and DNA repair. […] The WRN gene product that is defective in the chromosomal instability disorder has DNA helicase and exonuclease activities and interacts with a number of nuclear proteins to maintain genomic stability. We will employ an optimized high-throughput screening assay that utilizes a fluorescence intensity modulation scheme with a fluorophore and quencher positioned near one another within a duplex deoxyoligonucleotide that contains a single forked structure. After a high-throughput screen of the ~350,000-member Molecular Libraries Small Molecule Repository (MLSMR) collection, followed by data analysis and hit selection, a panel of confirmatory, as well as secondary and ternary, assays will be employed to identify high-confidence WRN inhibitors. Structure-activity relationships will be investigated for the top candidate inhibitor series through medchem expansion. These are the results of the primary screening campaign against the MLSMR. NIH Chemical Genomics Center [NCGC] NIH Molecular Libraries Probe Centers Network [MLPCN] MLPCN Grant: MH096530 Assay Submitter (PI): Robert Brosh, National Institute of Aging
# Three muL of reagents (buffer in columns 3 and 4 as negative controls; WRN at 20 nM final concentration in columns 1 and 2 as positive controls; columns 5-48 as test reactions) will be dispensed into a 1536-well Greiner black plate via solenoid-valve based nanoliter dispensers. Compounds (23 nL each in columns 5-48) and control (23 nL each in column 2 as dose-response) will be transferred via a Kalypsys pintool equipped with a 1536-pin array. Plates will be incubated for 15 min at room temperature, and then 1 µL of substrate (100 nM forked duplex oligonucleotide and 2 mM ATP final concentrations) will be added to start reaction, and plate will be transferred into a ViewLux high-throughput CCD imager where reaction progress is measured in kinetic mode using standard red-fluorescence optics (excitation filter 525 nm, emission filter 598 nm).
# % is set by controls: 0 for no effect and ±100 for the full control effect.
row,Structure (SMILES),"activity change, negative = inhibition"
1,COc1cc(C(=O)NCC2(N(C)C)CCCCC2)c([N+](=O)[O-])cc1OC,inactive: -0.768%
2,CN(C)C1(CNC(=O)c2ccc(Br)cc2)CCCCC1,inactive: 15.3%
3,O=C(NCC1(N2CCCCC2)CCCCC1)c1cccc(Cl)c1,inactive: -9.85%
4,COc1cccc(C(=O)NCC2(N3CCCCC3)CCCCC2)c1,inactive: -1.18%
5,COc1ccc(Cl)cc1C(=O)NCC1(N(C)C)CCCCC1,inactive: 7.66%
6,O=C(OC1CN2CCC1CC2)C(CO)(c1ccccc1)c1ccccc1 (stereo not given),inactive: -5.96%
7,CC(C)Oc1ccc(C(=O)NCC2(N(C)C)CCCCC2)cc1,inactive: 1.63%
8,O=C(OCCN1CCCC1)C(O)(c1ccccc1)c1ccccc1,inactive: -18.2%
9,CN(C)c1cccc(C(=O)NCC2(N(C)C)CCCCC2)c1,inactive: 5.55%
10,C=C(C)C#CC(O)(C(=O)OC1CCN(C)CC1)c1ccccc1 (stereo not given),inactive: 2.14%
11,COc1ccc(Br)c(C(=O)NCC2(N3CCCCC3)CCCCC2)c1,inactive: -0.681%
12,CN1[C@@H]2CC[C@H]1CC(OC(=O)C(O)(c1ccccc1)c1ccccc1)C2 (stereo not given in full),inactive: 0.8%
13,O=C(NCC1(N2CCCCC2)CCCCC1)c1cc([N+](=O)[O-])ccc1Cl,inactive: 6.27%
14,CCN(CC)CC(C)C(C)OC(=O)C(O)(c1ccccc1)c1ccccc1 (stereo not given),inactive: -3.94%
15,COc1cc(SC)ccc1C(=O)NCC1(N(C)C)CCCCC1,inactive: 0.134%
16,CC(C)N1C(=O)CC2(CCN(CCOC(=O)C(O)(c3ccccc3)c3ccccc3)CC2)C1=O,inactive: -2.24%
17,Cc1ccccc1C(=O)NCC1(N2CCCCC2)CCCCC1,inactive: 1.49%
18,CN(C)c1ccc(C(=O)NCC2(N(C)C)CCCCC2)cc1,inactive: -6.35%
19,CN(C)C1CCCC1OC(=O)C(O)(c1ccccc1)c1ccccc1 (stereo not given),inactive: -6.16%
20,COc1ccc(C(=O)NCC2(N(C)C)CCCCC2)cc1,inactive: 2.61%
21,CCN1CCCC(OC(=O)C2(O)c3ccccc3C=Cc3ccccc32)C1 (stereo not given),inactive: -5.21%
22,Cc1cc(C(=O)NCC2(N3CCCCC3)CCCCC2)ccc1[N+](=O)[O-],inactive: 10.5%
23,O=C(NCC1(N2CCCCC2)CCCCC1)c1cccc(Br)c1,inactive: -9.36%
24,C=CCN1CCN(CCOC(=O)C(O)(c2ccccc2)c2ccccc2)CC1,inactive: 9.51%
25,O=C(NCC1(N2CCCCC2)CCCCC1)c1cc(F)c(F)cc1Cl,inactive: 0.0808%
